{
  "source": "patent US12275953B2",
  "about": "“Methods for screening host cells expressing target proteins” (Industrial Technology Research Institute, priority 2020, dated 2025)",
  "system": "SKBR3 breast cancer cells rich in HER2 antigen",
  "assay": "ADCC biological activity reporter gene assay (Jurkat-hFcγRIIIa-NFAT effector cells, luciferase)",
  "format": "cell-based",
  "conditions": "compared with the validated purified Anti-HER2 IgG1 (h4D5) recombinant antibody protein; 24 hours of reaction",
  "method": "In order to verify that the Anti-HER2 IgG1 (h4D5) antibody produced by the expression vector is a functional antibody, an analysis test was performed with antibody-dependent cell-mediated cytotoxicity (ADCC).\nJurkat-hFcγRIIIa-NFAT gene transgenic cells was used as effector cells and SKBR3 breast cancer cells rich in HER2 antigen was used as target cells in ADCC biological activity reporter gene detection system (Promega, #G9790). In addition, the ADCC biological activity detection of anti-HER2 monoclonal antibody, Anti-HER2 IgG1, was carried out by luminescent luciferase detection system (BioGlo™ Luciferase Assay system).\nFor the cell line C8 obtained by screening in Example 11 (the expression vector pcDNA3.1-CMV-GOI1-furin-p2A-GOI2-IRES-cgFth1 (V3) was used), the recombinant antibodies produced under the conditions of adding iron ions (250 Anti-HER2 IgG1_V3_C8-FAC-250 μM FAC+) and without adding iron ions (Anti-HER2 IgG1_V3_C8) during the screening process were tested. The recombinant antibody (Anti-HER2 IgG1_V2) produced by the expression vector pBudCE4.1-CMV-GOI1-cgFth1-SV40/EF1α-GOI2(V2) was also evaluated. […]",
  "data": [
    {"substance": "Anti-HER2 IgG1_V3_C8-FAC-250 μM FAC+: Anti-HER2 IgG1 (h4D5) recombinant antibody from cell line C8 (V3 vector) produced with iron ions added (250 μM FAC)", "values": [
      {"measurement": "ADCC effect", "value": "had the same effect"}
    ]}
  ]
}
